Assay results published in US5384243A (dated 1995).

Sequences of proteins named here, by UniProt entry; tags and fusion partners are left off.
UniProt P08173, whole entry: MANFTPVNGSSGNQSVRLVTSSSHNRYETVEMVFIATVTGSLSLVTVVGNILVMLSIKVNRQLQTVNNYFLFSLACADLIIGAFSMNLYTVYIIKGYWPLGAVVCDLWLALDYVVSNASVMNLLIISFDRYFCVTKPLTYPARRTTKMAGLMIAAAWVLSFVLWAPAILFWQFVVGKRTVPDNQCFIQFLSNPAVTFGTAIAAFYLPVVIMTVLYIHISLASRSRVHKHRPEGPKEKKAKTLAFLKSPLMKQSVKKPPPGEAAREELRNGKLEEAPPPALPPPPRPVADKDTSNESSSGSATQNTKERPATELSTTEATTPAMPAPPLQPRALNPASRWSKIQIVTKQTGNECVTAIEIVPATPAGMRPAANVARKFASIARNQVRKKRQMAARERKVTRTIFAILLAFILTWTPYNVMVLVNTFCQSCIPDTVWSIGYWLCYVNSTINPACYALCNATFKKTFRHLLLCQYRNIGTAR
UniProt P08172, whole entry: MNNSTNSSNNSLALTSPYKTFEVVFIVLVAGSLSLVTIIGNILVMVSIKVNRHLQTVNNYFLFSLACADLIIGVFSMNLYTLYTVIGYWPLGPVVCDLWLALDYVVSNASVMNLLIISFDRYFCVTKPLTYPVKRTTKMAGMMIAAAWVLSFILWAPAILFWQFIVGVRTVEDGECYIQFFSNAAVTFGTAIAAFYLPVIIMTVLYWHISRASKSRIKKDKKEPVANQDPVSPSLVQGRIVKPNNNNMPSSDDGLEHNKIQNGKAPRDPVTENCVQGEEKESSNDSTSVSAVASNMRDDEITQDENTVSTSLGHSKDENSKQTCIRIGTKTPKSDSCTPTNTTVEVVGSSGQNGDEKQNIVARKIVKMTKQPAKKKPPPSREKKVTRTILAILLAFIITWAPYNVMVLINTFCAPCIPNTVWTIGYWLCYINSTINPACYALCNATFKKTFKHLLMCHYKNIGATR

Key:
m4 mACHR [1] = target: T1, m4 mACHR (Homo sapiens, UniProt P08173); conditions: nih/3t3 cells
m2 mACHR [2] = target: T2, m2 mACHR (Homo sapiens, UniProt P08172); conditions: nih/3t3 cells
m4 mACHR [3] = target: T1, m4 mACHR
m2 mACHR [4] = target: T2, m2 mACHR

C[N+](C)(C)CCOC(N)=O [carbachol]
PI Hydrolysis Maximal activation (m4 mACHR [1]): 1.3 fold
PI Hydrolysis Maximal activation (m2 mACHR [2]): 1.2 fold
Transformation Maximal transportation (m4 mACHR [3]): 0
Transformation Maximal transportation (m2 mACHR [4]): 0
